Measurements taken from article PMC6233196 (Nature Communications, 2018).
“And” between values parts separate entries of the source, which are not always exact repeats. Equal entries are not always repeated.

The chains behind the UniProt entries cited, without tags or fusion partners. Residues count along the entry.
UniProt Q9R1M7, 24-1135: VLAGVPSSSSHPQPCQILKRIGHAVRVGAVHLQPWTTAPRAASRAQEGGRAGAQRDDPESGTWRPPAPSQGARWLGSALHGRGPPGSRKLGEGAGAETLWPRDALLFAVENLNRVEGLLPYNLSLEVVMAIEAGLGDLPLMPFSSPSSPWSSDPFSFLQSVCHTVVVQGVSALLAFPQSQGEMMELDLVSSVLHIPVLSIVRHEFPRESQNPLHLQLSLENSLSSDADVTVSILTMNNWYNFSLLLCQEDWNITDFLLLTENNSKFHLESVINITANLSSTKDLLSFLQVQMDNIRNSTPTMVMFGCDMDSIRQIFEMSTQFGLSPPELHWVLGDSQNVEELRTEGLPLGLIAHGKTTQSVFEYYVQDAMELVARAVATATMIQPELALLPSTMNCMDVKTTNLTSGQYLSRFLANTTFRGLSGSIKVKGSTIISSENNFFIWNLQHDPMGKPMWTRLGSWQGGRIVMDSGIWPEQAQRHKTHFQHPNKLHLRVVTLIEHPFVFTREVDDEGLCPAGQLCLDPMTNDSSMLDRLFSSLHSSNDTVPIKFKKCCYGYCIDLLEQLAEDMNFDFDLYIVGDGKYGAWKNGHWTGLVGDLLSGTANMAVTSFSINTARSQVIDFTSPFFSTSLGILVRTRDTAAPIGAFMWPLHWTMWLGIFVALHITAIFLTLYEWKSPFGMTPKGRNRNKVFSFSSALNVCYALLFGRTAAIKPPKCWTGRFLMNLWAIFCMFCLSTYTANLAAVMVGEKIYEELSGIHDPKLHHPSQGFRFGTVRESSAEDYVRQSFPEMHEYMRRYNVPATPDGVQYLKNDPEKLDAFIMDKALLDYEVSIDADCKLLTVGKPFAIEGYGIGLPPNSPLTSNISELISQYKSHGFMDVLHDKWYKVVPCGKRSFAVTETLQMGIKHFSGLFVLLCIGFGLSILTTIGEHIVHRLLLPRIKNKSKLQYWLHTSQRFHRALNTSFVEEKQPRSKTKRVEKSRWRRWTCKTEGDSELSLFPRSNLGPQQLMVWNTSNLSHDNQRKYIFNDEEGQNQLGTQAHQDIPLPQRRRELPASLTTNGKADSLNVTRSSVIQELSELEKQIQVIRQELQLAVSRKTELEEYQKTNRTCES
UniProt Q9R1M7, 24-1135 C859S/C913S: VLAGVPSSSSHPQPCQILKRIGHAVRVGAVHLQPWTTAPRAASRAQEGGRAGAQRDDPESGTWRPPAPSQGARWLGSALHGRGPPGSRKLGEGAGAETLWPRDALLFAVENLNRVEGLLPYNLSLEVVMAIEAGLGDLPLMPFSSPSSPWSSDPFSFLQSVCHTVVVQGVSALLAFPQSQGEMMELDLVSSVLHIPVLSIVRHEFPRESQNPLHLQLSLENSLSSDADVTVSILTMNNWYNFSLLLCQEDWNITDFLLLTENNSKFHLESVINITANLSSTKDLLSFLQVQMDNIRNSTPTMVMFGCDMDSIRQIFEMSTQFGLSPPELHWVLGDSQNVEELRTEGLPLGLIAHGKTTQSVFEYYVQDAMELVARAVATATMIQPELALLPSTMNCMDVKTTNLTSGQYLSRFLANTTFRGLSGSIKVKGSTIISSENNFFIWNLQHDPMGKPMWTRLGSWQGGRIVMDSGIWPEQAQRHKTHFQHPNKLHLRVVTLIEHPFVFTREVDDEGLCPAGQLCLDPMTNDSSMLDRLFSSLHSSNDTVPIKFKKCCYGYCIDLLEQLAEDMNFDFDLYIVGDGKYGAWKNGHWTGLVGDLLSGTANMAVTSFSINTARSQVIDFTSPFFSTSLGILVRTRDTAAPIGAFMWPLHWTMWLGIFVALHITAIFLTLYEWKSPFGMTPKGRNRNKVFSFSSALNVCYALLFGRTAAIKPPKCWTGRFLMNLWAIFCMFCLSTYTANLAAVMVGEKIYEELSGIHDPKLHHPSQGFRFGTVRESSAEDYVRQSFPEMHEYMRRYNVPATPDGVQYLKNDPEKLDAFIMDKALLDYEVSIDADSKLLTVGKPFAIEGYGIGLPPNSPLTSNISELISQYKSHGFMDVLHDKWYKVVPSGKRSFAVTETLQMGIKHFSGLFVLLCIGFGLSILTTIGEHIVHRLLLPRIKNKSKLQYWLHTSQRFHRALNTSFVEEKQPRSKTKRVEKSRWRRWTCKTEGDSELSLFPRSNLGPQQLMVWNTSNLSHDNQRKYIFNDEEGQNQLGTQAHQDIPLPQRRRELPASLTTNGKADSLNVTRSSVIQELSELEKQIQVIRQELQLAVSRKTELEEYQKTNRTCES

Tests used:
[1] = target: T1, GluN1/GluN3A receptors (Rattus norvegicus, UniProt P35439+Q9R1M7); assay: Whole-cell patch-clamp of glycine currents in HEK293 cells expressing wild-type GluN1/GluN3A; settings: for Washout (dissociation) time constant τoff, active state: continuous glycine; for Washout (dissociation) time constant τoff, resting state: pulses of glycine
[2] = target: T1, GluN1/GluN3A receptors; assay: Two-electrode voltage-clamp in Xenopus oocytes expressing wild-type GluN1/GluN3A; assay type: cell-based; design: while we record from intact (i.e. full length) membrane-imbedded receptors; expressed in transfected cells; host or cells: HEK293 cells
Protocol: (§1) Oocytes from Xenopus lævis (Xenopus Express, Rennes, France) were used for heterologous expression of recombinant GluN1/GluN3A receptors studied using two-electrode voltage-clamp (TEVC). TEVC recordings were performed 3–4 days following injection. […] Each oocyte was co-injected with a mixture of GluN1 and GluN3A cDNA at a concentration of 50 ng/µl and at a 1:1 ratio. The standard external solution contained (in mM): 100 NaCl, 2.5 KCl, 0.3 BaCl2, 5 HEPES, 0.01 DTPA (diethylenetriamine-pentaacetic acid), pH 7.3. […]
(§2) EC50, a and nH were set as free parameters.

[3] = target: GluN1-C744S-C798S/GluN3A receptors (Rattus norvegicus, UniProt P35439+Q9R1M7, C744S/C798S); settings: CGP-78608 500 nM, glycine 100 µM
Protocol: (§3) Cells were transfected using polyethylenimine with GluN1, GluN3A and GFP plasmids at a 1:3:1 ratio (0.3, 0.9 and 0.3 ng/µl respectively). Recordings were performed 24–48 h following cell transfection. […] EC50, a and nH were set as free parameters.

[4] = target: GluN1-C744S-C798S/GluN3A-C859S-C913S receptors (Rattus norvegicus, UniProt P35439+Q9R1M7, C744S/C798S/C859S/C913S); settings: CGP-78608 500 nM, glycine 100 µM
Protocol: as §3

[5] = target: GluN1/GluN3A-C859S-C913S receptors (Rattus norvegicus, UniProt P35439+Q9R1M7, C859S/C913S); settings: CGP-78608 500 nM, glycine 100 µM
Protocol: as §3

[6] = target: GluN1-CS/GluN3A-CS receptors (Rattus norvegicus, UniProt P35439+Q9R1M7, C744S/C798S/C859S/C913S)
Protocol: as §1, §2

[7] = CGP-78608 500 nM pre-incubated, glycine 1 mM, n = 5
[8] = CGP-78608 500 nM, listed as CGP
[9] = in presence of 500 nM CGP-78608

C[C@@H](NCc1cc(Br)cc2[nH]c(=O)c(=O)[nH]c12)P(=O)(O)O.Cl [CGP-78608, [(1 S)-1-[[(7-Bromo-1,2,3,4-tetrahydro-2,3-dioxo-5-quinoxalinyl)methyl]amino]ethyl]phosphonic acid hydrochloride]
Hill coefficient nH of potentiation dose-response curve ([1]; 100 µM glycine, peak current): 1.45
Potentiation of peak current [1, 7]: > 100 fold
Potentiation of steady-state current [1, 7]: > 1000 fold
Washout (dissociation) time constant τoff, active state ([1]; CGP-78608 500 nM): 27.6 ± 6.3 s
Washout (dissociation) time constant τoff, active state [1, 8]: 28 s
Washout (dissociation) time constant τoff, resting state ([1]; CGP-78608 500 nM): 22.5 ± 4.2 s
Washout (dissociation) time constant τoff, resting state [1, 8]: 17 s
Potentiation when applied after glycine (post-Gly) ([1]; CGP-78608 500 nM, receptors pre-occupied with glycine): only minimal potentiation
Reversibility of potentiation ([1]; washout, same cell): fully reversible
Extent of desensitization Iss/Ipeak ([1]; with CGP-78608 500 nM, glycine 100 µM, control 0.30 ± 0.03): 0.80 ± 0.03
Desensitization kinetics τdes ([1]; with CGP-78608 500 nM, glycine 100 µM, control 81 ± 13 ms): 1642 ± 183 ms
Potentiation when applied after glycine (post-Gly), steady-state ([2]; CGP-78608 500 nM): greatly reduced
Potentiation of glycine responses in oocytes ([2]; CGP-78608 500 nM pre-applied): massively potentiates

NCC(=O)O [glycine, Glycine]
Glycine off-relaxation τoff [3]: 442 ± 208 ms
Glycine off-relaxation τoff [4]: 2098 ± 196 ms
Glycine off-relaxation τoff [5]: 2217 ± 91 ms
Glycine nH [6, 9]: 1.21
Decrease in glycine EC50, mutant vs wild-type ([6]; in presence of CGP-78608 500 nM): > 10 fold and 13 fold
Glycine off-relaxation τoff ([1]; wt receptors, CGP-78608 500 nM, glycine 100 µM): 205 ± 110 ms
Glycine nH ([2]; control, no CGP-78608): 1.39
Glycine nH ([2]; in presence of 50 nM CGP-78608): 1.58
Glycine nH [2, 9]: 1.47
